AlphaSeq binding of Ab-95 light chain variants to a spike HR2 peptide

Antigen: PDVDLGDISGINAS, a 14-residue peptide of the SARS-CoV-2 spike HR2 region.

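The starting antibody came from a phage panning campaign against this peptide. In library AAYL52, one, two or three CDR residues were substituted; doubles and triples were drawn at random. AlphaSeq pools MATa yeast showing the antibodies with MATalpha yeast showing the peptide. Mating (16 h, 30 °C) was followed by selection of diploids and sequencing of their barcodes. Each replicate has its own calibration line, from reference interactions of the BCL2 family. The assay was run in three technical replicates.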

Each scFv is VH, a (GGGGS)3 linker, VL, as in the parent Ab-95, and differs from it in the CDRs of the light chain only.
VH: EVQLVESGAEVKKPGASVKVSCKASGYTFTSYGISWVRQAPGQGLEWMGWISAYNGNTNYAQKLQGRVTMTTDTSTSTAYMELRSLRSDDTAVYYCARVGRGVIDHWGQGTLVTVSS
VL: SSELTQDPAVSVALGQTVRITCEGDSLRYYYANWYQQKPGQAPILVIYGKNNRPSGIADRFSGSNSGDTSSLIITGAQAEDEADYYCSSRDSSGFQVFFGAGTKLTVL

Variants are written as CDR1, CDR2 and CDR3 of the light chain (limits as in the source). Parent: EGDSLRYYYAN, GKNNRPS, SSRDSSGFQVF.
Scale: log10 of Kd in nM, estimated from mating counts; low values are strong binders.
"nd" means that the variant was in the library but no mating with the target was seen in that replicate; the authors take this as a sign of poor binding, and no number exists.
In this assay the parent's reference entry averaged 2.31; its copy inside this library read 2.25.
Background: pairings of library AAYL52 with three empty control strains gave a value in 28% of cases (median 3.91, 5th percentile 2.90). Values in that range, when seen in few replicates, are hard to tell from nonspecific mating. The control count says in how many pairings with the empty strains this scFv gave a signal.

EGDSLRYYEAN | GKNNRPS | SFRDSSGFQVR: 1.62, 1.41, 0.92 (controls 1 of 9).
EGDSLRYYYAN | GKNNPPS | CSHDSSGFQVF: nd, nd, nd (controls 3 of 9).
EGDSLRYYYAN | GKNNRPP | SSRDSSGSQVF: 3.01, 3.26, 2.41 (controls 2 of 9).
EGDSLRYYYAN | QLNNRPS | SSRASSGFQVF: 3.29, nd, nd (controls 5 of 9).
EGDSLRYYYAN | GKNNRPS | SSRRSTGFAVF: 1.96, 2.36, 2.85 (controls 5 of 9).
EGDSLRYYYAD | GKNNRPS | SSRCSHGFQVF: 3.46, nd, nd (controls 2 of 9).
SGDSLRYYYAN | PKNNRPS | SCRDSSGFQVF: nd, nd, 3.92 (controls 4 of 9).
ERDSLRQYFAN | GKNNRPS | SSRDSSGFQVF: 3.50, 3.33, 3.71 (controls 1 of 9).
EGDSLRYYYAN | GKNSRPS | SSWDSSGFQKF: 2.35, nd, 3.91 (controls 2 of 9).
EGDSGRYYYAN | GKNNRPS | SVRQSSGFQVF: nd, nd, 3.81 (controls 1 of 9).
EGDSIRYYYAN | GKNNRPS | SSRDSSGYQVF: 3.14, 2.53, 2.39 (controls 0 of 9).
EGDRERYYYAN | GKNNRPM | SSRDSSGFQVF: 1.78, 1.46, 1.06 (controls 5 of 9).
EGDSLEYYYAN | GKNNRPS | SSRDSQGFQVR: 2.92, 2.83, 2.33 (controls 2 of 9).
EGDSLRYYYAN | GKNNAPS | SSRDHSIFQVF: 3.14, 4.43, nd (controls 5 of 9).
EGDYLRYYYAN | MKNNLPS | SSRDSSGFQVF: 3.93, 3.72, nd (controls 3 of 9).
FGDSLRYYYAN | GKNNTPS | SSRCSSGFQVF: 3.75, 4.11, 3.74 (controls 4 of 9).
EGDSLAYYYAN | QKNQRPS | SSRDSSGFQVF: 3.36, 3.17, 3.17 (controls 2 of 9).
EGDSQRSYYAN | GKNNRPS | SERDSSGFQVF: 5.02, nd, nd (controls 5 of 9).
EVDSTRYYYAN | GKNNRPS | SARDSSGFQVF: 2.03, 2.05, 1.60 (controls 3 of 9).
EGDKLRYYYAN | GKNKRPS | SSRDSSMFQVF: 4.84, nd, nd (controls 0 of 9).
EGDSLRNYYAV | GKNNRPS | SSRDSSGPQVF: 3.73, nd, nd (controls 0 of 9).
EGDSLRYYCAN | GKNNRPS | SSRDSSDFQVC: 2.99, 2.91, 4.10 (controls 6 of 9).
EGDSLRYYIAN | GKLNRPS | SSRDSSGFSVF: nd, 4.17, nd (controls 1 of 9).
EGDSLRYYYCK | GKNNRPS | SSRDSSGFSVF: nd, nd, 4.13 (controls 2 of 9).
EGDSLRYYYAN | GKNNRPS | SFRESSGFQGF: 3.24, 3.17, 3.15 (controls 4 of 9).
EGDSLRYYYAN | GYNNYPS | SSFDSSGFQVF: nd, nd, nd (controls 3 of 9).
EGDSLRYYYAV | GKNNRPS | SSRDHSGFMVF: nd, nd, nd (controls 0 of 9).
KGDSLRYYYAN | GKNNRPS | CSRDSSAFQVF: 2.45, 2.61, 1.81 (controls 4 of 9).
EGDSLRVYYAP | GKNNRPS | SSRSSSGFQVF: 2.89, 2.92, 2.27 (controls 3 of 9).
EGPSMNYYYAN | GKNNRPS | SSRDSSGFQVF: 2.36, 2.34, 2.27 (controls 3 of 9).
EGDSLYRYYAN | GKNNQPS | SSRDSSGFQVF: 3.50, nd, 4.25 (controls 3 of 9).
EEDALRYYYAN | GKNNRPS | SSRDSSGFQQF: 3.07, nd, 3.95 (controls 2 of 9).
EGVSCRMYYAN | GKNNRPS | SSRDSSGFQVF: 4.35, nd, 3.44 (controls 2 of 9).
EGDSLRYYYAN | GKNGRGS | SSRDSIGFQVF: nd, nd, nd (controls 0 of 9).
EGDSLRYYYAN | GKANRPS | SSRDSSGAQVW: 2.47, 2.00, 1.76 (controls 2 of 9).
EGDNLRYYYAN | GKNNRPS | SSFDSSGFQDF: 3.50, 3.13, 4.16 (controls 1 of 9).
WGDSLRYYHAN | GKNNRPS | SSRDSSDFQVF: 2.91, 2.04, 2.17 (controls 2 of 9).
EGDSLRYYYHN | GKNNRPS | PWRDSSGFQVF: 4.35, 4.03, 4.66 (controls 2 of 9).
EGGSLRYYRAN | GKNNRPS | SCRDSSGFQVF: 2.66, 2.77, 2.38 (controls 4 of 9).
EGDSLRQYYAN | GKNNDPS | SSRDSSGNQVF: 3.37, nd, 3.71 (controls 3 of 9).
EGDSLRGYAAW | GKNNRPS | SSRDSSGFQVF: nd, 3.88, nd (controls 0 of 9).

Source: Engelhart et al. 2022 (doi:10.1038/s41597-022-01779-4), MIT Lincoln Laboratory and A-Alpha Bio; data file from the FLAb repository.